Source: ChEMBL document CHEMBL5104176, “Highly Potent and Selective Dopamine D4 Receptor Antagonists Potentially Useful for the Treatment of Glioblastoma” (J Med Chem, 2022)

Chains of the proteins cited; added tags and fusions are not shown.
UniProt P14416, whole entry: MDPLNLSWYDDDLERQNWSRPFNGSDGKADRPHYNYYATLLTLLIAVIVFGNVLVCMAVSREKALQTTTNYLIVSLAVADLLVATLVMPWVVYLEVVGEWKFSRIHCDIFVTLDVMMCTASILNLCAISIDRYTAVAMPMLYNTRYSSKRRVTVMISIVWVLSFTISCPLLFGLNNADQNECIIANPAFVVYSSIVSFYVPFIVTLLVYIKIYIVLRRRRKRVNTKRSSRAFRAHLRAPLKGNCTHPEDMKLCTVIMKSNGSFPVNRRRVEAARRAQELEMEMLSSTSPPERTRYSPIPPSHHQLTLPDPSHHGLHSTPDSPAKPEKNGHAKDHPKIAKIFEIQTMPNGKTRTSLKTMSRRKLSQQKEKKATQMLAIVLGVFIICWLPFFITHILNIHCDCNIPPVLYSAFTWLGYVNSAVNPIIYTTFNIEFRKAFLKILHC

Legend:
[1] = Selectivity ratio of Ki for displacement of [3H]N-methylspiperone from human D3R expressed in HEK293T cell membrane to Ki for displacement of [3H]N-methylspiperone from human D4.4 receptor expressed in HEK293T cell membrane
[2] = molecular target: D(2) dopamine receptor (Homo sapiens, UniProt P14416); experiment: Displacement of [3H]N-methylspiperone from human D2L receptor expressed in HEK293T cell membrane incubated for 1 hr by MicroBeta scintillation counting method; assay type: cell membranes
Method in brief: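 Membranes from stably transfected HEK293 cells (hD2L, hD3 or hD4.4), 20 μg (D2, D3) or 30 μg (D4) protein/well. Incubated 1 h at room temperature in EBSS binding buffer, pH 7.4, with 0.4 nM [3H]N-methylspiperone and 10 half-log dilutions in triplicate. 10 μM (+)-butaclamol defines nonspecific binding. GF filtration, scintillation counting. Ki by Cheng–Prusoff from ≥3 experiments; selectivity is the Ki ratio.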

[3] = Selectivity ratio of Ki for displacement of [3H]N-methylspiperone from human D2L receptor expressed in HEK293T cell membrane to Ki for displacement of [3H]N-methylspiperone from human D4.4 receptor expressed in HEK293T cell membrane

In the case of `O=C1CCc2ccccc2N1CCCN1CCN(c2cccc(Cl)c2Cl)CC1`, the Ratio Ki [1] is reported as 30, the Ki [2] is reported as 55 nM and the Ratio Ki [3] is reported as 79.
